# Measurements taken from PubChem BioAssay AID624170 (National Center for Advancing Translational Sciences (NCATS), 2012).
# Protein sequences, listed by entry. Tags and fused reporters are not part of them. Lines headed by an entry give the natural chain unless they say otherwise; changes in a name come on top.
# UniProt O94925: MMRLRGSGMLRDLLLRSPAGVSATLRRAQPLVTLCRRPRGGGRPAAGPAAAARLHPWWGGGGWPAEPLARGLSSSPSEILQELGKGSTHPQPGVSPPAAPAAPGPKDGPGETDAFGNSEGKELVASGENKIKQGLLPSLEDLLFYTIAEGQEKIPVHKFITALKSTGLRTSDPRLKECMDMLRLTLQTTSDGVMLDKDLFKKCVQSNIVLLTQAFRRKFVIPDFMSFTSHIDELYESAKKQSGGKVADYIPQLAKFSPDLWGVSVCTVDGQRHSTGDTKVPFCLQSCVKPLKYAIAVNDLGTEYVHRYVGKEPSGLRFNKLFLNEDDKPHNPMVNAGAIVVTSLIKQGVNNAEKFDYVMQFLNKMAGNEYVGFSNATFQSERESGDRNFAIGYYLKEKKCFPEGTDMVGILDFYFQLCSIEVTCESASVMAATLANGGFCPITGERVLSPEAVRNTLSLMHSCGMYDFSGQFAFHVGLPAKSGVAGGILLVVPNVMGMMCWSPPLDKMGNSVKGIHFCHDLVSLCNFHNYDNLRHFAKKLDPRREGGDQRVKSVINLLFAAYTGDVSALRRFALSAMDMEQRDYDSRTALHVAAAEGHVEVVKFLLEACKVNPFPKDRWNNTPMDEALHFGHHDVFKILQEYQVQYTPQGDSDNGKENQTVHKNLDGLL
# The entries are a selection whose mix differs from that of the whole data set. Inconclusive results are not listed. Where a call stands in place of a potency, no number is given. Active and inactive are the calls of the source. Calls come from the whole dose curve; as a rule, active = well fitted inhibition curve with a large enough effect; inconclusive = small, poorly fitted or top-dose-only effect, or another doubt; inactive = no such curve, though single readings can be large or run the other way.
# Biological target: Glutaminase kidney isoform, mitochondrial (Homo sapiens) (UniProt O94925)
# Assay: qHTS for Inhibitors of Glutaminase (GLS)
# Conditions: GLS enzymatic activity, qHTS titration; series mostly up to 45.5 µM
row,Structure (SMILES),Potency
1,CC(=O)N1C2C3N(C(C)=O)C1C1N(C(C)=O)C(C(N1C(C)=O)N3C(C)=O)N2C(C)=O,inactive
2,O=[N+]([O-])c1cccc2n[nH]nc12,inactive
3,O=[N+]([O-])c1cc([N+](=O)[O-])c(CCNc2ccccc2)c([N+](=O)[O-])c1,inactive
4,CCc1nc2c(n1)c1c(non1O)c1c2no[n+]1[O-],inactive
5,Cc1ccc(NP(=O)(Oc2ccccc2)Oc2ccccc2)nc1,inactive
6,COc1ccc(C2=NCC(CBr)S2)cc1 (stereo not drawn),inactive
7,CN(C)C(=O)OCCc1n(C)cc[n+]1C,inactive
8,CC(C)c1nc(Nc2ccccc2)n(P(=O)(N(C)C)N(C)C)n1,inactive
9,CC(C)=N/N=C(\N)N[N+](=O)[O-],inactive
10,CC1CCN(C(=O)Oc2c(Cl)cc(Cl)c3cccnc23)CC1,inactive
11,c1cc(-c2nn[nH]n2)ccc1-c1nn[nH]n1,inactive
12,C[N+]1=C2C=CC=CC=C2SC12C([N+](=O)[O-])=CC([N+](=O)[O-])=C[C-]2[N+](=O)[O-] (stereo not drawn),inactive
13,Nc1ccc([As](=O)(O)c2ccc(N)cc2)cc1,inactive
14,CCN(/C(=N/P(=O)(N1CCOCC1)N1CCOCC1)N1CCOCC1)c1ccc(OC)cc1,inactive
15,c1nnnn1CCn1cnnn1,inactive
16,O=P(Nc1nccs1)(c1ccccc1)c1ccccc1,inactive
17,CC(C)C(=O)NC(Sc1ccccc1)C(Cl)(Cl)Cl (stereo not drawn),inactive
18,C[C@H]1OP(=O)(Oc2ccccc2)[C@H](O)[C@H](O)[C@H]1N=[N+]=[N-] (stereo partly drawn),inactive
19,O=P(Nc1nc2ccccc2s1)(c1ccccc1)c1ccccc1,inactive
20,CN(C(=O)Cc1ccccc1)[C@H]1CC[C@@]2(CCCO2)C[C@@H]1N1CCCC1,inactive

row,Structure (SMILES),Potency
1,Cc1cc([N+](=O)[O-])cc([N+](=O)[O-])c1O,inactive
2,COc1ccc(N)c([N+](=O)[O-])c1[N+](=O)[O-],inactive
3,Nc1ccc(CCCCOc2ccccc2)cc1,inactive
4,CN(C)C1(CNC(=O)c2ccc(Cl)c(S(N)(=O)=O)c2)CCCCC1,inactive
5,O=P(Nc1ccccn1)(c1ccc(Br)cc1)c1ccc(Br)cc1,inactive
6,C(Cc1nn[nH]n1)Cc1nn[nH]n1,inactive
7,Nc1ccc([As](=O)(O)c2ccc([N+](=O)[O-])cc2)cc1,inactive
8,O=C(OC1CN2CCC1CC2)c1cccc(Cl)c1 (stereo not drawn),inactive
9,CC(=O)NC(SC(=S)N(C)C)C(Cl)(Cl)Cl (stereo not drawn),inactive
10,O=[N+]([O-])c1ncn(CCn2cnc([N+](=O)[O-])n2)n1,inactive
11,O=[N+]([O-])c1ccc(O)c(/C=N/Nc2ccc([N+](=O)[O-])cc2[N+](=O)[O-])c1,inactive
12,O=[As](O)(c1ccccc1)c1ccc(O)cc1,inactive
13,O=P1(N(CCCl)CCCl)OCCC2CCCCN21 (stereo not drawn),inactive
14,O=C(NC1CCS(=O)(=O)C1)NP(=S)(Oc1ccccc1)Oc1ccccc1 (stereo not drawn),inactive
15,CCNC(=S)/N=C(\N)N[N+](=O)[O-],inactive
16,Cc1ccc(NP(=O)(Oc2cccc(C)c2)Oc2cccc(C)c2)nc1,inactive
17,c1ccc(-c2nn[nH]n2)c(-c2nn[nH]n2)c1,inactive
18,O=c1c2cc([N+](=O)[O-])ccc2[nH]c2c([N+](=O)[O-])cc([N+](=O)[O-])cc12,inactive
19,CN(C)C(=O)Oc1noc2ccccc12,inactive
20,CC(NC(=O)COC(=O)C(O)(c1ccccc1)c1ccccc1)c1ccccc1 (stereo not drawn),inactive

row,Structure (SMILES),Potency
1,Cc1ccccc1OP(=O)(Nc1ccccn1)Oc1ccccc1C,inactive
2,CC(=O)NC(SC(=S)N(CC(C)C)CC(C)C)C(Cl)(Cl)Cl (stereo not drawn),inactive
3,Cc1ccc(OP(=O)(Nc2ccccn2)Oc2ccc(C)cc2)cc1,inactive
4,COC(=O)c1cc2c(s1)N=C(c1ccccc1)N(C)P2(=O)N1CCOCC1 (stereo not drawn),inactive
5,CCC(=O)N1C2C3N(C(=O)CC)C1C1N(C(=O)CC)C(C(N1C(=O)CC)N3C(=O)CC)N2C(=O)CC,inactive
6,O=C(OC1CN2CCC1CC2)c1ccccc1 (stereo not drawn),inactive
7,CCc1cc(O)c([N+](=O)[O-])c(C)c1[N+](=O)[O-],inactive
8,CC(C)(C)C(=O)NC(Sc1ccccc1)C(Cl)(Cl)Cl (stereo not drawn),inactive
9,CCOc1ccc(C2=NCC(CBr)S2)cc1 (stereo not drawn),inactive
10,O=P1(Nc2nc3ccc(Cl)cc3s2)COc2ccccc2O1 (stereo not drawn),inactive
11,CC(=O)Nc1ccc(Oc2c([N+](=O)[O-])cc([N+](=O)[O-])cc2[N+](=O)[O-])cc1,inactive
12,CC(=O)Nc1ccc([As](=O)(O)O)c(O)c1,inactive
13,COC(=O)C1(C)COP(=O)(NCc2ccccc2)OC1 (stereo not drawn),inactive
14,CC(=O)c1ccc(N2CC2c2ccncc2)cc1 (stereo not drawn),inactive
15,N#C/C(=C\c1ccc(N(CCBr)CCBr)cc1)C(N)=O,inactive
16,C[C@H]1OP(=O)(Oc2ccccc2)C[C@@H]2O[C@@H]21 (stereo partly drawn),inactive
17,C[C@@H]1C=CCP(=O)(Oc2ccccc2)O1 (stereo partly drawn),inactive
18,Cc1ccccc1CN(C)C(=O)COC(=O)C(O)(c1ccccc1)c1ccccc1,inactive
